From patent publication US9340533B2, “1,4-benzothiazepine-1-oxide derivative and pharmaceutical composition utilizing the same” (priority 2009, dated 2016)

Test system: right atrium in the guinea pig
Assay: tissue or blood
Conditions: Cavia porcellus, read-out: concentration of 50% inhibition (IC50) of contraction width

SMILES | IC50
COc1ccc2c(c1)CN(C(=O)CCN1CCC(Cc3ccccc3)CC1)CC[S+]2[O-] (centres unmarked) [compound [III], 4-[3-(4-benzylpiperidin-1-yl)propionyl]-7-methoxy-2,3,4,5-tetrahydro-1,4-benzothiazepine-1-oxide] | 36 µM
COc1ccc2c(c1)CN(C(=O)CCN1CCC(Cc3ccc(O)cc3)CC1)CC[S+]2[O-] (centres unmarked) [compound [IV], 4-{3-[4-(4-hydroxybenzyl)piperadin-1-yl]propionyl}-7-methoxy-2,3,4,5-tetrahydro-1,4-benzothiazepine-1-oxide] | 110 µM
